Biological target: human μ opiate receptor (Homo sapiens, UniProt P35372)
Experiment: [3H]-naloxone displacement, SPA, membranes of CHO-K1 cells
Settings: 1 μM test substance; inhibition of specific binding of 1 nmol/l [3H]-naloxone

Amino acid sequences for entries named in this document (tags omitted).
UniProt P35372, whole entry, looked up: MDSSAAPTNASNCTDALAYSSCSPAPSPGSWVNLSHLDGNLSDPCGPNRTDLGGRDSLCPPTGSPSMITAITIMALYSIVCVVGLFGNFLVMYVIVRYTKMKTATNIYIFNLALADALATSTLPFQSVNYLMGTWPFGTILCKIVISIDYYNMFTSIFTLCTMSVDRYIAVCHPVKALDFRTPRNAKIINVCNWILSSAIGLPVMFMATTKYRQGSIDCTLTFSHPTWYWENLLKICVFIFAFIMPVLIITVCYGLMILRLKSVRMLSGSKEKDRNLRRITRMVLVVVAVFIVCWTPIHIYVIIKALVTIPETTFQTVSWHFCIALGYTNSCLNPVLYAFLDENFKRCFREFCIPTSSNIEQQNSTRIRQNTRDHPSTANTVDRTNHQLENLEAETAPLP

| SMILES | μ opioid receptor [1 μM] % inhibition [%] |
| --- | --- |
| COc1cc(C)c(S(=O)(=O)N(C)CCOCC(=O)N(C)CCC2CCC(CCc3ccccc3)(N3CCCC3)CC2)c(C)c1 (stereo not shown) [Compound 58, 2-(2-(4-methoxy-N,2,6-trimethylphenylsulfonamido)ethoxy)-N-methyl-N-(2-(4-phenethyl-4-(pyrrolidin-1-yl)cyclohexyl)ethyl)acetamide] | 11 |
| COc1cc(C)c(S(=O)(=O)N2CCCCC2COCC(=O)N2CCC(c3ccccc3)(N3CCN(c4ccncc4)CC3)CC2)c(C)c1 (stereo not shown) [Compound 62, 2-((1-(4-methoxy-2,6-dimethylphenylsulfonyl)piperidin-2-yl)methoxy)-1-(4-phenyl-4-(4-(pyridin-4-yl)piperazin-1-yl)piperidin-1-yl)ethanone] | 61 |
| COc1cc(C)c(S(=O)(=O)N2CCCCC2COCC(=O)N2CCC(c3cccc(F)c3)(N3CCN(C)CC3)CC2)c(C)c1 (stereo not shown) | 3 |
| COc1cc(C)c(S(=O)(=O)N(C)CCOCC(=O)N2CCC(c3ccc(F)cc3)(N3CCN(C)CC3)CC2)c(C)c1 [Compound 42, N-(2-(2-(4-(4-fluorophenyl)-4-(4-methylpiperazin-1-yl)piperidin-1-yl)-2-oxoethoxy)ethyl)-4-methoxy-N,2,6-trimethylbenzenesulfonamide] | 9 |
| COc1cc(C)c(S(=O)(=O)N(C)CCOCC(=O)N(C)CCC2CCC(c3ccccc3)(N3CCCC3)CC2)c(C)c1 (stereo not shown) [Compound 34, 2-(2-(4-methoxy-N,2,6-trimethylphenylsulfonamido)ethoxy)-N-methyl-N-(2-(4-phenyl-4-(pyrrolidin-1-yl)cyclohexyl)ethyl)acetamide] | 69 |
| COc1cc(C)c(S(=O)(=O)N2CCCCC2COCC(=O)N(C)CCC2CCC(Cc3ccccc3)(N(C)C)CC2)c(C)c1 (stereo not shown) [Compound 84, N-(2-(4-benzyl-4-(dimethylamino)cyclohexyl)ethyl)-2-((1-(4-methoxy-2,6-dimethylphenylsulfonyl)piperidin-2-yl)methoxy)-N-methylacetamide] | 61 |
| COc1cc(C)c(S(=O)(=O)N(C)CCOCC(=O)N(C)CCC2CCC(Cc3ccccc3)(N(C)C)CC2)c(C)c1 (stereo not shown) [Compound 53, N-(2-(4-benzyl-4-(dimethylamino)cyclohexyl)ethyl)-2-(2-(4-methoxy-N,2,6-trimethylphenylsulfonamido)ethoxy)-N-methylacetamide] | 56 |
| CN(CCOCC(=O)NC1CCC(c2ccccc2)(N2CCCC2)CC1)S(=O)(=O)c1c(Cl)cc(Cl)cc1Cl (stereo not shown) [Compound 191, N-(4-phenyl-4-(pyrrolidin-1-yl)cyclohexyl)-2-(2-(2,4,6-trichloro-N-methylphenylsulfonamido)ethoxy)acetamide] | 90 |
| COc1cc(C)c(S(=O)(=O)N2CCCCC2COCC(=O)N2CCC(c3ccccc3)(N3CCN(C)CC3)CC2)c(C)c1 (stereo not shown) [Compound 49, 2-((1-(4-methoxy-2,6-dimethylphenylsulfonyl)piperidin-2-yl)methoxy)-1-(4-(4-methylpiperazin-1-yl)-4-phenylpiperidin-1-yl)ethanone] | 10 |
| CN(CC1CCC(Cc2ccccc2)(N2CCCC2)CC1)C(=O)CC(NS(=O)(=O)c1ccc2ccccc2c1)c1ccccc1 (stereo not shown) [Compound 112, N-((4-benzyl-4-(pyrrolidin-1-yl)cyclohexyl)methyl)-N-methyl-3-(naphthalene-2-sulfonamido)-3-phenylpropanamide] | 19 |
| COc1cc(C)c(S(=O)(=O)N(C)CCOCC(=O)N2CCC(c3ccccc3)(N3CCN(c4ccncc4)CC3)CC2)c(C)c1 [Compound 69, 4-methoxy-N,2,6-trimethyl-N-(2-(2-oxo-2-(4-phenyl-4-(4-(pyridin-4-yl)piperazin-1-yl)piperidin-1-yl)ethoxy)ethyl)benzenesulfonamide] | 36 |
| CN(CCC1CCC(Cc2ccccc2)(N2CCCC2)CC1)C(=O)CC(NS(=O)(=O)c1ccc2ccccc2c1)c1ccccc1 (stereo not shown) [Compound 56, N-(2-(4-benzyl-4-(pyrrolidin-1-yl)cyclohexyl)ethyl)-N-methyl-3-(naphthalene-2-sulfonamido)-3-phenylpropanamide] | 49 |
| CN(CC1CCC(c2ccccc2)(N2CCCC2)CC1)C(=O)CC1CCCCN1S(=O)(=O)c1cccc(C(F)(F)F)c1 (stereo not shown) [Compound 33, N-methyl-N-((4-phenyl-4-(pyrrolidin-1-yl)cyclohexyl)methyl)-2-(1-(3-(trifluoromethyl)phenylsulfonyl)piperidin-2-yl)acetamide] | 44 |
| COc1cc(C)c(S(=O)(=O)N2CCCCC2COCC(=O)NC2CCC(c3ccccc3)(N3CCCC3)CC2)c(C)c1 (stereo not shown) [Compound 147, 2-((1-(4-methoxy-2,6-dimethylphenylsulfonyl)piperidin-2-yl)methoxy)-N-(4-phenyl-4-(pyrrolidin-1-yl)cyclohexyl)acetamide] | 93 |
| CN(CC1CCC(CCc2ccccc2)(N2CCCC2)CC1)C(=O)CC1CCCCN1S(=O)(=O)c1cccc(C(F)(F)F)c1 (stereo not shown) [Compound 38, N-methyl-N-((4-phenethyl-4-(pyrrolidin-1-yl)cyclohexyl)methyl)-2-(1-(3-(trifluoromethyl)phenylsulfonyl)piperidin-2-yl)acetamide] | 13 |
| CN(CCCC1CCC(c2ccccc2)(N2CCCC2)CC1)C(=O)CC(NS(=O)(=O)c1ccc2ccccc2c1)c1ccccc1 (stereo not shown) [Compound 128, N-methyl-3-(naphthalene-2-sulfonamido)-3-phenyl-N-(3-(4-phenyl-4-(pyrrolidin-1-yl)cyclohexyl)propyl)propanamide] | 69 |
| COc1cc(C)c(S(=O)(=O)N2CCC(OCC(=O)NCC3CCC(c4ccccc4)(N4CCOCC4)CC3)C2)c(C)c1 (stereo not shown) [Compound 173, 2-(1-(4-methoxy-2,6-dimethylphenylsulfonyl)pyrrolidin-3-yloxy)-N-((4-morpholino-4-phenylcyclohexyl)methyl)acetamide] | 26 |
| COc1cc(C)c(S(=O)(=O)N2CCCCC2COCC(=O)NC2CCC(Cc3ccccc3)(N3CCOCC3)CC2)c(C)c1 (stereo not shown) [Compound 155, N-(4-benzyl-4-morpholinocyclohexyl)-2-((1-(4-methoxy-2,6-dimethylphenylsulfonyl)piperidin-2-yl)methoxy)acetamide] | 34 |
| Cc1cc(S(=O)(=O)N2CCCCC2CCC(=O)N2CCC(c3ccccc3)(N3CCN(c4ccncc4)CC3)CC2)c(C)cc1Cl (stereo not shown) [Compound 99, 3-(1-(4-chloro-2,5-dimethylphenylsulfonyl)piperidin-2-yl)-1-(4-phenyl-4-(4-(pyridin-4-yl)piperazin-1-yl)piperidin-1-yl)propan-1-one] | 36 |
| COc1cc(C)c(S(=O)(=O)N2CCCCC2COCC(=O)N(C)CCCC2CCC(c3cccc(F)c3)(N3CCCC3)CC2)c(C)c1 (stereo not shown) [Compound 204, N-(3-(4-(3-fluorophenyl)-4-(pyrrolidin-1-yl)cyclohexyl)propyl)-2-((1-(4-methoxy-2,6-dimethylphenylsulfonyl)piperidin-2-yl)methoxy)-N-methylacetamide] | 59 |
| COc1cc(C)c(S(=O)(=O)N2CCCCC2COCC(=O)N(C)CCC2CCC(CCc3ccccc3)(N3CCCC3)CC2)c(C)c1 (stereo not shown) [Compound 46, 2-((1-(4-methoxy-2,6-dimethylphenylsulfonyl)piperidin-2-yl)methoxy)-N-methyl-N-(2-(4-phenethyl-4-(pyrrolidin-1-yl)cyclohexyl)ethyl)acetamide] | 32 |
| COc1cc(C)c(S(=O)(=O)N(C)CCOCC(=O)NC2CCC(Cc3ccccc3)(N3CCCCC3)CC2)c(C)c1 (stereo not shown) [Compound 17, N-(4-benzyl-4-(piperidin-1-yl)cyclohexyl)-2-(2-(4-methoxy-N,2,6-trimethylphenylsulfonamido)ethoxy)acetamide] | 18 |
| COc1cc(C)c(S(=O)(=O)N2CCC(OCC(=O)NC3CCC(c4ccccc4)(N4CCCC4)CC3)C2)c(C)c1 (stereo not shown) [Compound 153, 2-(1-(4-methoxy-2,6-dimethylphenylsulfonyl)pyrrolidin-3-yloxy)-N-(4-phenyl-4-(pyrrolidin-1-yl)cyclohexyl)acetamide] | 86 |
| CN(CCC1CCC(Cc2ccccc2)(N2CCCC2)CC1)C(=O)COCC1CCc2ccccc2N1S(=O)(=O)c1ccc(Cl)c(Cl)c1 (stereo not shown) [Compound 104, N-(2-(4-benzyl-4-(pyrrolidin-1-yl)cyclohexyl)ethyl)-2-((1-(3,4-dichlorophenylsulfonyl)-1,2,3,4-tetrahydroquinolin-2-yl)methoxy)-N-methylacetamide] | 26 |
| CN(CCCC1CCC(CCc2ccccc2)(N2CCCC2)CC1)C(=O)CC(NS(=O)(=O)c1ccc2ccccc2c1)c1ccccc1 (stereo not shown) [Compound 79, N-methyl-3-(naphthalene-2-sulfonamido)-N-(3-(4-phenethyl-4-(pyrrolidin-1-yl)cyclohexyl)propyl)-3-phenylpropanamide] | 6 |
| COc1cc(C)c(S(=O)(=O)N(C)CCOCC(=O)NC2CCC(Cc3ccccc3C)(N(C)C)CC2)c(C)c1 (stereo not shown) [Compound 10, N-(4-(dimethylamino)-4-(2-methylbenzyl)cyclohexyl)-2-(2-(4-methoxy-N,2,6-trimethylphenylsulfonamido)ethoxy)acetamide] | 50 |
| COc1cc(C)c(S(=O)(=O)N2CCCC2COCC(=O)NCC2CCC(Cc3ccccc3)(N3CCOCC3)CC2)c(C)c1 (stereo not shown) [Compound 169, N-((4-benzyl-4-morpholinocyclohexyl)methyl)-2-((1-(4-methoxy-2,6-dimethylphenylsulfonyl)pyrrolidin-2-yl)methoxy)acetamide] | 24 |
| COc1cc(C)c(S(=O)(=O)N2CCC(OCC(=O)N(C)CC3CCC(Cc4ccccc4)(N4CCN(C)CC4)CC3)C2)c(C)c1 (stereo not shown) [Compound 174, N-((4-benzyl-4-(4-methylpiperazin-1-yl)cyclohexyl)methyl)-2-(1-(4-methoxy-2,6-dimethylphenylsulfonyl)pyrrolidin-3-yloxy)-N-methylacetamide] | 10 |

From patent US20090253669A1, “Substituted Sulfonamide Compounds” (GRUENENTHAL GmbH, priority 2008, published 2009)
